Data published in US11964973B2 (priority 2019, dated 2024).
pEC50, pIC50: −log10 of the molar value. Read-outs that look alike come from different tables or passages of the source.

Amino acid sequences for entries named in this document (tags omitted). A change or cut given only in a name is not applied to a line headed by its entry.
UniProt Q13574: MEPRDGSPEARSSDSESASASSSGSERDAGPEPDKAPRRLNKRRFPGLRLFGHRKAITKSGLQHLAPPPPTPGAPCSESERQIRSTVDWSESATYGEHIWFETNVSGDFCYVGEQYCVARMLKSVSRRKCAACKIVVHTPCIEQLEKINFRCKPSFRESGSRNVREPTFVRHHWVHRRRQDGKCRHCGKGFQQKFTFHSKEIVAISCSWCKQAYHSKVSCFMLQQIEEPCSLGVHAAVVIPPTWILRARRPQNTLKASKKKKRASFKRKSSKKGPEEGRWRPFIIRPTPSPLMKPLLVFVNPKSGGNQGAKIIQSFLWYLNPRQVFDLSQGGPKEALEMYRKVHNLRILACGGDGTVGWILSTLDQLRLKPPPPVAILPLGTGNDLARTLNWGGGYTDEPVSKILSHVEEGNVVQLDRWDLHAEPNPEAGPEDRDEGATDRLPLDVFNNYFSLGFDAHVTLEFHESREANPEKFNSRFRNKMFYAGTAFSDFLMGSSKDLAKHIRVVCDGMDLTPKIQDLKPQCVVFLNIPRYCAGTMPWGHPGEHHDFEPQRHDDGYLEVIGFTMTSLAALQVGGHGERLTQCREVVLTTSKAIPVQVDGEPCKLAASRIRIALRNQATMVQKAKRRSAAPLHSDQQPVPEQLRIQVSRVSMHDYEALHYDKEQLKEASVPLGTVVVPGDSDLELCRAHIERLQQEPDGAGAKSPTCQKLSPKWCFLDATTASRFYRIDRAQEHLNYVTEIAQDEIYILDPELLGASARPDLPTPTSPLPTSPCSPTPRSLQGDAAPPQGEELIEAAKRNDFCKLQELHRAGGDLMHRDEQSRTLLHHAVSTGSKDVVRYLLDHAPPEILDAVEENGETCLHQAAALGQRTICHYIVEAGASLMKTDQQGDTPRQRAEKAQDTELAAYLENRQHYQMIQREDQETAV

Key:
[1] = target: human DGKζ (Homo sapiens (Human), UniProt Q13574); assay: biochemical; conditions: liposome (LIPGLO) assay
[2] = system: human venous whole blood, CD8 positive population (pERK); assay: DGK human whole blood pERK assay; assay type: cell-based
Description: Assay 11: DGK Human Whole Blood pERK Assay
Human whole blood ERK phosphorylation assay was performed with human venous whole blood obtained from healthy donors (drawn with Heparin as anti-coagulant). […] Heparinized human whole blood was added to the compound plate at 9 μL per well and incubated for one hour at 37° C. in a humidified 95%, air/5% CO2 incubator. After one hour of compound incubation, 1 μL of human anti-CD3 antibody (in-house) in the presence of cross-linking antibody goat anti-mouse IgG (4 μg/mL) was added to the well at 1 μg/mL final concentration for stimulation of pathway and additionally incubated for 15 minutes at 37° C. […] Samples analyzed using the Intellicyt® iQue Screener PLUS. The pERK activation was quantitated by the percentage of pERK positive population within CD8 positive population.

[3] = read-out: DGK HWB, human whole blood pERK
[4] = Homo sapiens, CD8 positive, read-out: DGK HWB, human whole blood pERK

Row | Structure (SMILES) | pEC50 [2, 3] | pEC50 [2, 4] | other results
1 | C[C@@H]1CN(c2cc(=O)n(C)c3ccc(C#N)nc23)CC[C@H]1Oc1c(F)cccc1F (single isomer, unassigned) [Example 126] |  |  | pIC50 [1]: ≤ 3.60
2 | C[C@@H]1CC(Oc2cccc(C(F)(F)F)c2)[C@@H](C)CN1c1nc(=O)n(C)c2ccc(C#N)nc12 (stereo partly drawn) [Example 253, 4-((2R,5S)-2,5-dimethyl-4-(3-(trifluoromethyl)phenoxy)piperidin-1-yl)-1-methyl-2-oxo-1,2-dihydropyrido[3,2-d]pyrimidine-6-carbonitrile] | 5.64 |  | 
3 | C[C@@H]1CN(c2nc(=O)n(C)c3ccc(C#N)nc23)[C@@H](C)CC1Oc1cccc(C(F)(F)F)c1 (stereo partly drawn) [Example 254, 4-((2S,5R)-2,5-dimethyl-4-(3-(trifluoromethyl)phenoxy)piperidin-1-yl)-1-methyl-2-oxo-1,2-dihydropyrido[3,2-d]pyrimidine-6-carbonitrile] | 5.64 |  | 

More lines, main results first:

Row | pEC50 [2, 3] | pEC50 [2, 4] | Structure (SMILES) | other results
4 |  | 5.66 | C[C@H]1CN(c2nc(=O)n(C)c3ccc(C#N)nc23)[C@@H](C)CC1Oc1cccc(C(F)(F)F)c1 (stereo partly drawn) [Example 255, 8-((2S,5S)-2,5-dimethyl-4-(3-(trifluoromethyl)phenoxy)piperidin-1-yl)-5-methyl-6-oxo-5,6-dihydro-1,5-naphthyridine-2-carbonitrile] | 
5 | 5.92 |  | C[C@H]1CN(c2nc(=O)n(C)c3ccc(C#N)nc23)[C@@H](C)CC1Oc1cccc(C(F)(F)F)c1 (stereo partly drawn) [Example 258, 8-((2S,5S)-2,5-dimethyl-4-(3-(trifluoromethyl)phenoxy)piperidin-1-yl)-5-methyl-6-oxo-5,6-dihydro-1,5-naphthyridine-2-carbonitrile] | 
6 |  | 4.70 | CC1CN(c2c(C#N)c(=O)n(C)c3ccc(C#N)nc23)CCC1N(C)C(=O)c1ccc(F)cc1 (stereo not drawn) [Example 288, N-(1-(3,6-dicyano-1-methyl-2-oxo-1,2-dihydro-1,5-naphthyridin-4-yl)-3-methylpiperidin-4-yl)-N-methyl-4-(trifluoromethyl)benzamide] | 
